In PubChem BioAssay AID720708 (National Center for Advancing Translational Sciences (NCATS), 2013):
Only a part is listed here, and it is no random draw. The source made the active and inactive calls. Calls come from the whole dose curve; as a rule, active = well fitted inhibition curve with a large enough effect; inconclusive = small, poorly fitted or top-dose-only effect; inactive = no such curve, though single readings can be large or run the other way. Entries that show only a call come without a potency.

Chains of the proteins cited; added tags and fusions are not shown.
UniProt Q8WZA2, whole entry: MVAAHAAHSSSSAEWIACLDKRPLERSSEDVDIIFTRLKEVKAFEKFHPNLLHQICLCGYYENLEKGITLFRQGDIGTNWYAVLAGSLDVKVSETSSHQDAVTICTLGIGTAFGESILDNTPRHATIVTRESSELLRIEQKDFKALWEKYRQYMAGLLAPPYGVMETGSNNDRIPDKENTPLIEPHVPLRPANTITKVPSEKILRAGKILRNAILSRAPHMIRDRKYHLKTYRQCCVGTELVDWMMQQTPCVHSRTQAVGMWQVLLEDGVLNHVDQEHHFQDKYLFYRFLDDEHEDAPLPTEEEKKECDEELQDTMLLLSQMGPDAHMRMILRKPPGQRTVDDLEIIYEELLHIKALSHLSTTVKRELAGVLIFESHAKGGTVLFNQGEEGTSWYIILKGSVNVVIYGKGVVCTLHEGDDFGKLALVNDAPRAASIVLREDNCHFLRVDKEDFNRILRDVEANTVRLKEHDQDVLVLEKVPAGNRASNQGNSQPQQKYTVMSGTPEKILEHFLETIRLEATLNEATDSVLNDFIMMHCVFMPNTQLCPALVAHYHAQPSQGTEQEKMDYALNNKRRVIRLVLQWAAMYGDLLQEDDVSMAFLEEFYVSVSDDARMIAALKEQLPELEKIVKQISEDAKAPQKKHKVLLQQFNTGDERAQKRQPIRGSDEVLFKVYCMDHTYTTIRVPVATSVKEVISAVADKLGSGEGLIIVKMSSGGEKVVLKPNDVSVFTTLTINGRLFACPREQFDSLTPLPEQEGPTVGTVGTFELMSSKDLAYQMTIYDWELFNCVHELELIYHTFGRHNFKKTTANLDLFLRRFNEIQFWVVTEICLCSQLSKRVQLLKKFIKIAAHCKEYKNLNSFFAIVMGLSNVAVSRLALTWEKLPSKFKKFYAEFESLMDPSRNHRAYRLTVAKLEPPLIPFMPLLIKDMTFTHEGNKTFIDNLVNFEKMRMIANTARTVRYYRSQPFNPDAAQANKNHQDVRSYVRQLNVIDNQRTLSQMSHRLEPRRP

Target: Rap guanine nucleotide exchange factor 4 (Homo sapiens) (UniProt Q8WZA2)
Assay: qHTS for Antagonist of cAMP-regulated guanine nucleotide exchange factor 2 (EPAC2): primary screen; note: nearly all actives have a fitted effect of over 45% in size
Conditions: EPAC2 GEF exchange of Rap1B-BODIPY-GDP, fluorescence; series mostly up to 114 µM
From the text: In multi-cellular eukaryotic organisms, the effects of cAMP are transduced by two ubiquitously-expressed intracellular cAMP receptors, the classic protein kinase A/cAMP-dependent protein kinase (PKA/cAPK) and the more recently discovered exchange protein directly activated by cAMP/cAMP-regulated guanine nucleotide exchange factor (EPAC/cAMP-GEF). Both PKA and EPAC are ubiquitously expressed in all tissues, and an increase in intracellular cAMP levels will lead to the activation of both PKA and EPAC. Therefore, careful dissections of the individual role and relative contribution of EPAC and PKA within the overall cAMP signaling in various model systems are critical for further elucidating the mechanism of cAMP signaling. To date no EPAC-specific antagonists and agonist, as well as isoform-specific agonists have been reported, and developing EPAC-specific pharmacological probes to determine the physiological functions that EPAC play in the overall cAMP-mediated signaling remains a major challenge within the research field. Furthermore, identified regulators of EPAC may lead to new mechanism-based therapeutic strategies specifically targeting the EPAC / cAMP-signaling components as EPAC has been implicated to play important roles in major human pathological conditions such as diabetes, heart disease, and cancer.
This qHTS will be used to screen the Molecular Libraries Small Molecule Repository (MLSMR) as a concentration-titration series using the NCGC unique quantitative screening (qHTS) platform to find inhibitors for EPAC2. In addition, this assay will also be used as a counterscreen for the EPAC1 qHTS. This fluorescent based assay is developed and validated for EPAC2 that measures exchange using EPAC effector Rap1 complex with BODIPY-GDP, a GDP analog with a tethered fluorophores. Inhibitors are identified by monitoring the change in fluorescence signal as the exchanged free BODIPY-GDP has a reduced fluorescence compared to Rap1-bound BODIPY-GDP. Decrease in signal (inhibition) is the desired outcome for the EPAC2 antagonist while no activity in this assay is desired for the EPAC1 antagonist counterscreen.
NIH Chemical Genomics Center [NCGC]
NIH Molecular Libraries Probe Centers Network [MLPCN]
Assay Submitter (PI): Xiaodong Cheng, The University of Texas, Medical Branch
Briefly, three uL of reagents (100 nM EPAC2, 250 nM RAP1B-BODIPY-GDP, 50 uM GDP) were dispensed into a 1536-well Greiner black solid-bottom medium binding assay plate. Controls and test compounds (23 nL) were transferred to the plate via a Kalypsys pin tool equipped with a 1536-pin array. The plates were centrifuged at 1,000 rpm for 15 seconds followed by 5 minute incubation at room temperature. The assay plates were read at 5 minute intervals for 30 minutes in the ViewLux plate reader using 480nm excitation and 540nm emission filters. The results were normalized to the agonist positive control ATA and DMSO.
Potency is the fitted concentration of half-maximal effect.

SMILES	Potency
CCOC(=O)c1ccc(NP(C)(=O)Oc2ccccc2)cc1 (stereo not drawn)	inactive
COc1ccccc1OP(C)(=O)Nc1ccc(C)cc1 (stereo not drawn)	inactive
Cc1ccc(NP(C)(=O)Oc2ccccc2)c(C)c1 (stereo not drawn)	inactive
COc1ccccc1OP(C)(=O)Nc1cc(Cl)ccc1C (stereo not drawn)	inactive
COc1ccc(OP(C)(=O)Nc2cccc(F)c2)cc1 (stereo not drawn)	inactive
Cc1cc(C)cc(OP(C)(N)=O)c1 (stereo not drawn)	inactive
COc1ccccc1OP(C)(=O)Nc1ccccc1 (stereo not drawn)	inactive
CP(=O)(Nc1ccccc1Br)Oc1ccccc1 (stereo not drawn)	inactive
Cc1cccc(C)c1OP(C)(=O)Nc1ccc(SC(F)(F)F)cc1 (stereo not drawn)	inactive
CP(=O)(Oc1ccccc1)OC(c1ccccc1)C(F)(F)F (stereo not drawn)	inactive
CCc1ccc(OP(C)(=O)N2CCN(c3ccc([N+](=O)[O-])cc3)CC2)cc1 (stereo not drawn)	inactive
CP(=O)(NC(=O)Nc1ccccc1)Oc1ccccc1 (stereo not drawn)	inactive
Cc1cc(C)cc(OP(C)(=O)Nc2ccc(SC(F)(F)F)cc2)c1 (stereo not drawn)	inactive
CCOP(C)(=S)SCC(=O)NC(C)C(=O)O (stereo not drawn)	inactive
O=[N+]([O-])c1cc([N+](=O)[O-])c(O)c([N+](=O)[O-])c1.c1ccc(Oc2ccncc2)cc1	inactive
CCOC(=O)c1ccc(NP(C)(=O)Oc2ccc(OC)cc2)cc1 (stereo not drawn)	inactive
CP(=O)(Nc1ccccn1)Oc1ccc(Cl)cc1 (stereo not drawn)	inactive
CCN(CC)CC(O)COC(=O)C(O)(c1ccccc1)C1CCCCC1 (stereo not drawn)	inactive
COc1ccc(OP(C)(=O)Nc2ccc(Br)cc2)cc1 (stereo not drawn)	inactive
CP(=O)(Oc1ccccc1)N1CCOC1=O (stereo not drawn)	inactive

SMILES	Potency
CCc1ccc(OP(C)(=O)Nc2cccnc2)cc1 (stereo not drawn)	inactive
COc1ccccc1OP(C)(=O)Nc1c(C)n(C)n(-c2ccccc2)c1=O (stereo not drawn)	inactive
O=C(OCCCN1CCCC1)C(O)(c1ccccc1)C1CCCCC1 (stereo not drawn)	inactive
CP(=O)(Nc1ccc(Cl)cc1)Oc1ccc(F)cc1 (stereo not drawn)	inactive
CC(C)(C)c1ccc(OP(C)(=O)O)cc1	inactive
CN(C)C(=O)c1c([N+](=O)[O-])cc([N+](=O)[O-])cc1[N+](=O)[O-]	inactive
Nc1ccc2c(ccc3cccnc32)n1.O=[N+]([O-])c1cc([N+](=O)[O-])c(O)c([N+](=O)[O-])c1	inactive
CP(=O)(OC12CC3CC(CC(C3)C1)C2)OC12CC3CC(CC(C3)C1)C2	inactive
CCOC(=O)c1ccc(NP(C)(=O)Oc2ccc(Cl)cc2)cc1 (stereo not drawn)	inactive
COc1ccc(OP(C)(=O)Nc2ccccc2Br)cc1 (stereo not drawn)	inactive
COc1ccccc1OP(C)(=O)Nc1ccc(C)c(C)c1 (stereo not drawn)	inactive
CP(=O)(OCCOc1ccccc1)OCCOc1ccccc1	inactive
COc1ccccc1OP(C)(=O)Nc1ccc(Br)cc1 (stereo not drawn)	inactive
CN(C)CCOC(=O)C(O)(c1ccccc1)C1CCCC1 (stereo not drawn)	inactive
COc1ccc(OP(C)(=O)Nc2ccccn2)cc1 (stereo not drawn)	inactive
O=[N+]([O-])c1cc([N+](=O)[O-])c(Nc2ccccn2)c([N+](=O)[O-])c1	inactive
Cc1c(NP(C)(=O)Oc2ccc(C(C)C)cc2)c(=O)n(-c2ccccc2)n1C (stereo not drawn)	inactive
CCc1ccc(OP(C)(=O)O)cc1	inactive
CP(=O)(Nc1ccccn1)Oc1ccccc1 (stereo not drawn)	inactive
COc1ccccc1OP(C)(=O)Nc1ccc(C)cc1C (stereo not drawn)	inactive

SMILES	Potency
CP(=O)(Nc1ccccc1F)Oc1ccccc1 (stereo not drawn)	inactive
O=C(OCCN1CCN(CCOCc2ccccc2)CC1)C(O)(c1ccccc1)c1ccccc1	inactive
COc1ccc(OP(C)(=O)Nc2ccc(SC(F)(F)F)cc2)cc1 (stereo not drawn)	inactive
CCOC(=O)c1ccc(NP(C)(=O)Oc2ccc(F)cc2)cc1 (stereo not drawn)	inactive
CCN(CC)CCCOC(=O)C(O)(c1ccccc1)C1CCCCC1 (stereo not drawn)	inactive
Cc1c([N+](=O)[O-])cc([N+](=O)[O-])c(Br)c1[N+](=O)[O-]	inactive
CP(=O)(Nc1ccccc1)Oc1ccc(F)cc1 (stereo not drawn)	inactive
COc1ccc(OP(C)(=O)Nc2cccc(Br)c2)cc1 (stereo not drawn)	inactive
COc1ccc(NP(C)(=O)Oc2ccccc2OC)cc1 (stereo not drawn)	inactive
CN(C)CCOC(=O)C(O)(c1ccccc1)C1CCCCC1 (stereo not drawn)	inactive
Cc1cc(-c2cccc3ccccc23)c(C)cn1.O=[N+]([O-])c1cc([N+](=O)[O-])c(O)c([N+](=O)[O-])c1	active: 20 µM
O=[N+]([O-])c1ccc(OP2(=O)COCCO2)cc1 (stereo not drawn)	inactive
Cc1c(C(c2ccc3c(c2)OCO3)c2c(C)n(C)n(-c3ccccc3)c2=O)c(=O)n(-c2ccccc2)n1C.O=[N+]([O-])c1cc([N+](=O)[O-])c(O)c([N+](=O)[O-])c1	inactive
CP(=O)(Nc1ccc(SC(F)(F)F)cc1)Oc1ccc(F)cc1 (stereo not drawn)	inactive
CCOP(C)(=S)SCC(=O)NC(C)(CC)C(=O)O (stereo not drawn)	inactive
CP(=O)(Nc1ccc2c(c1)OCCO2)Oc1ccccc1 (stereo not drawn)	inactive
O=[N+]([O-])c1cc([N+](=O)[O-])c(C(F)(F)F)c([N+](=O)[O-])c1O	active: 8.44 µM
Cc1ccccc1NP(C)(=O)Nc1ccccc1C	inactive
